# Data reported in PubChem BioAssay AID504775 (Broad Institute, 2011).
# The list shows a part of the results, in another mix than the full data. Activity calls are given as the source filed them.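 The calls were made as follows: active = mean replicate activation of at least 60% and every replicate at or above 60%; inconclusive = mean or all-replicate condition met, but not both; inactive = mean below 60% and not all replicates reaching 60%.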
# Assay: activators of SR-BI mediated DiI-HDL uptake, primary screen, ldlA[mSR-BI] CHO cells, DiI fluorescence (AID 504775);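 also: 0% = median plate neutral-control signal and 100% = twice that signal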
# Settings: 3 h, at 12.5 µM, hits give high values, 100 = double the neutral-control signal
# Summary of the method: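 Assay system: CHO ldlA[mSR-BI] cells, LDL receptor-null, SR-BI overexpressing; medium: Ham's F12 with 0.5% BSA, HEPES 25 mM, pH 7.4; also added: DiI-HDL 10 µg/mL; timing: 3 h uptake period with compound, 37 °C; signal: DiI fluorescence, bottom read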
row,Compound,activation
1,COc1ccc(N/C(=N/P(=O)(N2CCOCC2)N2CCOCC2)N2CCOCC2)cc1,inactive: 26.5%
2,O=[N+]([O-])c1cc(Oc2ccc([N+](=O)[O-])cc2C(F)(F)F)cc([N+](=O)[O-])c1,inactive: -40.3%
3,Cc1cc(=O)[nH]c(N[N+](=O)[O-])n1,inactive: 3.21%
4,O=C(OC1CN2CCC1CC2)C12CC3CC(CC(C3)C1)C2 (stereo unspecified),inactive: -0.382%
5,Cc1c2c(nc3ccccc13)SC(C(Cl)Cl)C2 (stereo unspecified),inactive: -3.33%
6,COc1cc(I)ccc1[As](=O)(O)O,inactive: -5.99%
7,COc1ccc2nc(NP(=O)(c3ccccc3)c3ccccc3)sc2c1,inactive: -3.04%
8,O=P1(N(CCCl)CCCl)Nc2ccccc2N1,inactive: 25.2%
9,O=P1(N(CCCl)CCCl)OCCCN1CCCl (stereo unspecified),inactive: 0.976%
10,CCCOP(=S)(Nc1nc(N)cc(=O)[nH]1)OCCC,inactive: 31.9%
11,Nc1cccc2c([As](=O)(O)O)cccc12,inactive: -70%
12,CCOP(=O)(Nc1cccc2ccccc12)OCC,inactive: -4.58%
13,COc1cc(C2NCCC3(OCCO3)C2(C)C)cc(OC)c1OC (stereo unspecified),inactive: 6.93%
14,COc1cc(C(=O)NCC2(N3CCOCC3)CCCCC2)cc(Cl)c1OC(C)C,inactive: -25.4%
15,O=[As](O)(O)c1cccnc1,inactive: 22.2%
16,O=C(OC1CN2CCC1CC2)c1ccc(Cl)cc1 (stereo unspecified),inactive: 5.91%
17,O=[As](O)(c1cccc(O)c1)c1cccc(O)c1,inactive: -3.64%
18,Cc1cccc(OCC(=O)OC2CN3CCC2CC3)c1 (stereo unspecified),inactive: 28.3%
19,NC(=O)Nc1ccc([As](=O)(O)O)cc1,inactive: 5.85%
20,CN(C(=O)Cc1ccc(Cl)c(Cl)c1)[C@H]1CC[C@@]2(CCCO2)C[C@@H]1N1CCCC1,inactive: 12.4%
21,CN(C)C(=O)c1cc([N+](=O)[O-])cc2c1-c1c(cc([N+](=O)[O-])cc1[N+](=O)[O-])C2=O,inactive: -5.49%
22,O=[N+]([O-])c1ccc2c(c1)nnn2O,inactive: 3%
23,CCOP1(=S)c2c(C)nn(CCC#N)c2N=C(c2ccc(F)cc2)N1C (stereo unspecified),inactive: -27.3%
24,CN(C(=O)Cc1ccccc1)[C@@H]1CC[C@]2(CCCO2)C[C@H]1N1CCCC1,inactive: -3.6%
25,N#CCCN(C(=O)COC(=O)C(O)(c1ccccc1)c1ccccc1)c1ccc(F)cc1,inactive: 5.9%
26,O=P(Nc1nccs1)(c1ccccc1)c1nc2ccccc2s1 (stereo unspecified),inactive: -10.4%

row,Compound,activation
1,O=P(Nc1nccs1)(Oc1ccccc1)Oc1ccccc1,inactive: 8.19%
2,CCOP1(=S)c2c(C)nn(CCC#N)c2N=C(c2ccccc2F)N1C (stereo unspecified),inactive: -15.4%
3,O=C(O)COc1ccc([As](=O)(O)O)cc1[N+](=O)[O-],inactive: -1.32%
4,Nc1ccccc1[As](=O)(O)c1ccccc1,inactive: 7.39%
5,O=P1(Nc2ncccn2)COc2ccccc2OC1,inactive: -29.9%
6,NS(=O)(=O)c1cccc(NC(=O)COC(=O)C(O)(c2ccccc2)c2ccccc2)c1,inactive: -2.74%
7,O=P1(Nc2ccc(Br)cn2)COc2ccccc2OC1,inactive: 8.65%
8,O=[As](O)(c1cccs1)c1cccs1,inactive: 15.6%
9,Nc1cccc([As](=O)(O)c2ccccc2)c1,inactive: 22.4%
10,Cc1ccc(C(=O)OC2CN3CCC2CC3)cc1 (stereo unspecified),inactive: 47%
11,CC1CCC(C(C)C)C(OP(=O)(Nc2ccccn2)c2ccccc2)C1 (stereo unspecified),inactive: 9.44%
12,Cc1nn(-c2ccccc2)c2c1P(=O)(N1CCOCC1)N(C)C(c1ccccc1)=N2 (stereo unspecified),inactive: 22.1%
13,CCCC1OP(=O)(Nc2ccccc2)OCC1CC (stereo unspecified),inactive: 5.51%
14,O=C(/C=C/c1ccccc1)OC1CN2CCC1CC2 (stereo unspecified),inactive: 5.84%
15,CN(C)C1(CNC(=O)c2ccc(S(C)(=O)=O)cc2)CCCCC1,inactive: 7.09%
16,COc1ccccc1CNC(=O)COC(=O)C(O)(c1ccccc1)c1ccccc1,inactive: -2.54%
17,CC1(CBr)Cn2c(nc3ccccc3c2=O)S1 (stereo unspecified),inactive: 10%
18,CN(C(=O)Cc1ccc(Cl)c(Cl)c1)[C@@H]1CCCC[C@H]1N1CCCC1,inactive: 16.3%
19,CC(C)/C=N\N=C(\N)N[N+](=O)[O-],inactive: -2.89%
20,CCOP(=O)(Nc1ccc(C)cn1)OCC,inactive: 17.8%
21,CCOP(=O)(NC(=NC(C)c1ccccc1)NC(C)c1ccccc1)OCC (stereo unspecified),inactive: -2.2%
22,CCC1=CC2Cc3nc4ccc(Cl)cc4c(N)c3C(C1)C2 (stereo unspecified),inactive: 11%
23,O=P1(Nc2ccccn2)COc2ccccc2OC1,inactive: 5.6%
24,CC(C)(C)C(=O)NC(Sc1ncccn1)C(Cl)(Cl)Cl (stereo unspecified),inactive: 5.07%
25,Clc1n[nH]nc1-c1nn[nH][15n]1,inactive: 15.6%
